# Values quoted from earlier work as cited in paper PMC3877047, “Milligram Quantities of Homogeneous Recombinant Full-Length Mouse Munc18c from Escherichia coli Cultures” (PLoS ONE, 2013).
# By UniProt entry, the sequences of proteins in these tests, tags left out. Where a name states a change or a piece, a line headed by the entry shows the natural chain unless it says otherwise. Residues count along the entry.
# UniProt P70452, 1-275: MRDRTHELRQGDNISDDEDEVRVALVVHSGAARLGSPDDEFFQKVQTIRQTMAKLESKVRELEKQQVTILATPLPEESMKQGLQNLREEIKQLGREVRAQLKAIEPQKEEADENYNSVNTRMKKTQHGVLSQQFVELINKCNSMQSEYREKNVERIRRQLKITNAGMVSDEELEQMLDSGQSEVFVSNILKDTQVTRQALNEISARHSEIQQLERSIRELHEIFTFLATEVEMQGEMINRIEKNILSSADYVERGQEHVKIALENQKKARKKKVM
# UniProt Q60770: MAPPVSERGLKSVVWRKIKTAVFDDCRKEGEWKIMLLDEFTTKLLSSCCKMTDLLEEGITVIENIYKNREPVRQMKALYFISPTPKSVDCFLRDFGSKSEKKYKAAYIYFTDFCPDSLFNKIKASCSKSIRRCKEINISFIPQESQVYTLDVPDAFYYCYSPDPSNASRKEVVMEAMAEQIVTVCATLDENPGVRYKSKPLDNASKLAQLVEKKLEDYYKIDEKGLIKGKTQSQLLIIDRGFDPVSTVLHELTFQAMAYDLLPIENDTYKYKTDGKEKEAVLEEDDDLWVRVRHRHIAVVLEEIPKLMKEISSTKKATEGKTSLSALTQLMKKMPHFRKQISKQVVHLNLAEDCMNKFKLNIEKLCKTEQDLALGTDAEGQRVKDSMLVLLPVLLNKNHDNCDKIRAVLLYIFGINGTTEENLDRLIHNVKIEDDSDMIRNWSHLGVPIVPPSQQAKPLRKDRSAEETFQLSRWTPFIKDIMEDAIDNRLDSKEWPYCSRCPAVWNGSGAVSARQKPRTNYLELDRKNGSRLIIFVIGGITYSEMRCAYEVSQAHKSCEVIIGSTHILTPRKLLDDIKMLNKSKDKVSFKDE
# pKd: −log10 of the molar value.
# Target: Syntaxin 4 1-275 (Mus musculus) (UniProt P70452)
# Experiment: ITC
# Details: cited from earlier work
substance,measurement,value
Munc18c (from UniProt Q60770),pKd,7.02
